From US20260167659A1, “STING AGONISTS” (LIGACHEM BIOSCIENCES INC., priority 2022, published 2026)

Amino acid sequences for entries named in this document (tags omitted). A change or cut given only in a name is not applied to a line headed by its entry.
UniProt Q86WV6, whole entry H232R: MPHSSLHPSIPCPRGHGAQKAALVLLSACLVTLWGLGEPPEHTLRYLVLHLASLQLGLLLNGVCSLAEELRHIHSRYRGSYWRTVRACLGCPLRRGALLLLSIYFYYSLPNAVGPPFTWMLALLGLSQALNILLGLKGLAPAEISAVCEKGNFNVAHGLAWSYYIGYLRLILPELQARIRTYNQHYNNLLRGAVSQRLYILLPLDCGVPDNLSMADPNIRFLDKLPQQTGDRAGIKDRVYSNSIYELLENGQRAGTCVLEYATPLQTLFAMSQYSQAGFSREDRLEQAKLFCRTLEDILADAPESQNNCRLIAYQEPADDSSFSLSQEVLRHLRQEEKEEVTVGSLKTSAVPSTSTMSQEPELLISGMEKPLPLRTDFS
UniProt Q86WV6, whole entry: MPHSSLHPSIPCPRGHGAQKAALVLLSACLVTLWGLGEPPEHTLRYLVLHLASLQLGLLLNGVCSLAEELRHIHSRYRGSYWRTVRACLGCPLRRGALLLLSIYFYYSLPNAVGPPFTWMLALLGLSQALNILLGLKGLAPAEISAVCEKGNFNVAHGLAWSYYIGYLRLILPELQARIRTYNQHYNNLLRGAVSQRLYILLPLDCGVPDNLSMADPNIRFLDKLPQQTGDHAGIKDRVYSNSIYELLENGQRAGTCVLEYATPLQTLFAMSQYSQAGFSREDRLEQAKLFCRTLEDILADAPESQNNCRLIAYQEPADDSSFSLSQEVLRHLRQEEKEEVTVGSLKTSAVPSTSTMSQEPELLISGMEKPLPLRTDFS
UniProt Q86WV6, whole entry R71H/G230A/H232R/R293Q: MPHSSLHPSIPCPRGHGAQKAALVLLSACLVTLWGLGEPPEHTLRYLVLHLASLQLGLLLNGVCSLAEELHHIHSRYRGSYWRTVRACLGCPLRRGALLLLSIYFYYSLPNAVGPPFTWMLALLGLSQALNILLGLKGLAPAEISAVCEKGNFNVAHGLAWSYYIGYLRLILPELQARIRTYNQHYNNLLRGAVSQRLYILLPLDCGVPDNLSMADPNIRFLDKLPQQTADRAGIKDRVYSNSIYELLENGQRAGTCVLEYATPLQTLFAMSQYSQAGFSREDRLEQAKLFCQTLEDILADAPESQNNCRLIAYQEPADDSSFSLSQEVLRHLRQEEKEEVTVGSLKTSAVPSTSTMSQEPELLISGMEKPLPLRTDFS

Assays:
hSTING-WT (R232) = hSTING-WT (R232) (Homo sapiens, UniProt Q86WV6, H232R); test: STING activation, THP1-Dual IRF3 reporter assay, hSTING-R232 cells; type: cell-based; conditions: read-out: STING activity using hSTING-R232 cells EC50, IRF3 luciferase reporter, 24 hours
hSTING HAQ variant = hSTING HAQ variant (Homo sapiens, UniProt Q86WV6, G230A/H232R/R293Q/R71H); test: STING activation, THP1-Dual IRF3 reporter assay, hSTING-HAQ cells; type: cell-based; conditions: read-out: STING activity using hSTING-HAQ cells, HAQ EC50, IRF3 luciferase reporter, 24 hours
hSTING H232 variant = hSTING H232 variant (Homo sapiens, UniProt Q86WV6); test: STING activation, THP1-Dual IRF3 reporter assay, hSTING-H232 cells; type: cell-based; conditions: read-out: STING activity using hSTING-H232 cells, H232 EC50, IRF3 luciferase reporter, 24 hours
human STING = human STING (Homo sapiens, UniProt Q86WV6, H232R); test: Direct STING binding, HUMAN STING WT BINDING KIT (Cisbio); conditions: read-out: Binding potency EC50; direct binding to human STING WT protein in vitro
[1] = system: human PBMCs (CD8+ T cells and NK cells); test: CD8+ T and NK cell activation in PBMCs by flow cytometry; conditions: 100 nM, 48 hours
[2] = Plasma pharmacokinetics in naive Balb/C mouse, LC-MS/MS; conditions: 1.5 mg/kg single IV
PBMCs = test: Normal cell cytotoxicity in PBMCs, CellTiter-Glo; conditions: read-out: In vitro cell cytotoxicity in PBMCs CC50, 72 hours
CT26 cells = test: In vivo efficacy, CT26 syngeneic mouse model; conditions: FIG. 8

| SMILES | EC50 (hSTING-WT (R232)) [nM] | EC50 (hSTING HAQ variant) [nM] | EC50 (hSTING H232 variant) [nM] | EC50 (human STING) [nM] | CD69 expression on CD8+ T cells ([1]; FIG. 4A) | CD69 expression on NK cells ([1]; FIG. 4B) | CL ([2]; n = 3) [mL/min/kg] | VSS ([2]; n = 3) [L/kg] | t1/2 ([2]; n = 3) [h] | AUC∞, norm ([2]; n = 3, dose-normalised) [kg·h/L] | Cmax, norm ([2]; n = 3, dose-normalised) [kg/L] | AUClast ([2]; n = 3, plasma) [ng·h/mL] | AUC∞ ([2]; n = 3, plasma) [ng·h/mL] | C0 ([2]; n = 3, plasma) [ng/mL] | Cmax ([2]; n = 3, plasma) [ng/mL] | F (%) ([2]; value in brackets (IV reference)) | CC50 (PBMCs) [nM] | mice with tumors completely eradicated (CT26 cells; 0.5 mg/kg intravenously once weekly for 3 weeks) | mice with tumors completely eradicated (CT26 cells; single dose of 1 mg/kg intravenously) |
| --- | --- | --- | --- | --- | --- | --- | --- | --- | --- | --- | --- | --- | --- | --- | --- | --- | --- | --- | --- |
| CCn1nc(C)cc1C(=O)Nc1nc2cc(C(N)=O)cc(OC)c2n1C/C=C/Cn1c(NC(=O)c2cc(C)nn2CC)nc2cc(C(N)=O)cc(OC/C=C/Cn3cc(NC(=O)OCc4ccc(O[C@@H]5O[C@H](C(=O)O)[C@@H](O)[C@H](O)[C@H]5O)c(C(=O)NCCOCCOCCN(C)C)c4)cn3)c21 | 9.95 | 14.8 | 48.3 | 0.19 | enhanced CD69 expression | enhanced CD69 expression | 0.5 ± 0 | 0.17 ± 0.01 | 4.26 ± 0.74 | 38.1 ± 2.60 | 6.44 ± 0.41 | 56900 ± 4120 | 57100 ± 3900 | 10000 ± 640 | 9650 ± 610 | (100) % | 16 | 2 out of 5 | 2 out of 5 |
| CCn1nc(C)cc1C(=O)Nc1nc2cc(C(N)=O)cc(OC)c2n1C/C=C/Cn1c(NC(=O)c2cc(C)nn2CC)nc2cc(C(N)=O)cc(OCCc3ccc(NC(=O)OCc4ccc(O[C@@H]5O[C@H](C(=O)O)[C@@H](O)[C@H](O)[C@H]5O)c(C(=O)NCCOCCOCCO)c4)cc3)c21 | 16.7 |  |  | 0.39 |  |  |  |  |  |  |  |  |  |  |  |  |  |  |  |
